Measured values reported in patent US8158441B2, “Method for detecting aggregate-forming circulating protein forms using an agent for aggregating said forms and an agent for capturing formed aggregates” (Biomerieux S.A., priority 2005, dated 2012).

Target: T1, phosphorylated Tau protein (Homo sapiens, UniProt P10636)
T1 construct: from tissue; host or cells: brain extracts from Alzheimer (AD+) and non-Alzheimer (AD-) patients, diluted in a pool of normal plasmas
Assay: Precipitation of phosphorylated Tau protein from brain extracts spiked into plasma by agent I, PhosphoTau ELISA of pellet and supernatant
Conditions: AD+ brain extracts spiked into plasma, 60 minutes at 37° C.
Description: The analysis is carried out according to the conventional “ELISA sandwich-type” immunoenzymatic technique as described by Kohnken et al. (Neuroscience Letters 287 (2000) 187-190).
The PhosphoTau Elisa assay is based on the use of Dynex microplates to which are bound 3 μg/ml of goat anti-mouse Fc antibodies (Pierce) in a 25 mM KHPO4 buffer (pH 7.2) containing 140 mM NaCl, 1 mM EDTA and 2 mM NaN3, for three hours at 24° C. The wells are then passivated with a TBS (25 mM Tris-HCl, pH 7.5, 140 mM NaCl)-casein (1%) buffer for 1 h at 24° C., and then incubated for 2 h at 24° C. with 3 μg/ml of Tau1 (Chemicon) and CP27 (AppliedNeuroSolutions) antibodies diluted in TBS casein buffer.
Standards and brain extracts are diluted in a pool of normal plasmas for these assays and deposited at a rate of 80 μL per well in duplicate. […] The biotinylated antibody is detected with 0.4 μg/ml of a streptavidin-peroxydase conjugate (Pierce) diluted in TBS-casein buffer and incubated for 45 minutes at 24° C. A Lumiglo reagent (Kirkegaard and Perry laboratories, US) is added to each well and the chemiluminescence is read in a luminometer (Berthold, Centro LB 960). […]
The pellets are recovered and are separated from the supernatants. […] The samples are then ready to be deposited on plates. […]
The pellets are recovered and are separated from the supernatants. […] The samples are then ready to be deposited onto plates.

concentration of agent I that eliminates the presence of phosphorylated Tau protein in the supernatant: 500 mg/mL
fraction in which the phosphorylated Tau protein is found after treatment with agent I (streptomycin at low concentration): found in the pellet
SMILES: [H]/N=C(/N)N[C@H]1[C@H](O)[C@@H](O)[C@H](O[C@@H]2O[C@@H](C)[C@](O)(C=O)[C@H]2O[C@@H]2O[C@@H](CO)[C@H](O)[C@@H](O)[C@@H]2NC)[C@@H](N/C(N)=N\[H])[C@@H]1O [streptomycin]
